Each structure is given as a SMILES string.

This data set in a line: Pharmacokinetic assessment in healthy fed male volunteers after oral tablet administration, plasma quantified by MSPE-HPLC-UV. The note with it: human plasma, oral fixed-dose combination Invokamet tablet (50 mg CANA/500 mg MET), mean ± SD. The procedure:
The chromatographic analysis was conducted using a Waters alliance e2695, (Massachusetts, USA) system which was equipped with a Waters 2487 dual wavelength detector and C18 TMS endcapping/reversed phase column (Luna 5 μm C18 100 A HPLC column 250 × 4.6 mm id, Phenomenex Co, Torrance, CA) at 40 °C. The mobile phase which being used in an isocratic mode was composed of potassium dihydrogen phosphate and sodium dodecyl sulfate (0.01 M, pH 6): acetonitrile (55 : 45, v/v) and passed through column with flow rate of 1 mL min^−1 (the mobile phase was filtered and degassed daily prior to use in HPLC). […] The column effluent was monitored at UV wavelength of 215 nm and the injection volume was 20.0 μL. The mobile phase was filtered by passing it through a 0.2 μm membrane filter (Millipore, Bedford, MA, USA).
Every frozen human plasma were firstly thawed at room temperature and placed into a sample glass tube. Preparation of plasma before MSPE method was based on protein precipitation with aid of acetonitrile. In this regard, the plasma (1.9 mL) was fortified with 100.0 μL of required concentrations of analytes followed by mixing with 2.0 mL ACN. The obtained solution was vortexed for 1 min and centrifuged for 5 min at 3500 rpm. Then, ACN content of the clear supernatant was evaporated under nitrogen stream and the remaining sample was transferred into 4.0 mL buffer solution at pH 4.0. […]

As to `CN(C)C(=N)N=C(N)N` [MET, metformin], the “AUC0–∞” value was determined as 7022.8 ± 703.6 ng·h/mL.

The values are drawn from article PMC9085437, “Silica-coated magnetic iron oxide functionalized with hydrophobic polymeric ionic liquid: a promising nanoscale sorbent for simultaneous extraction of antidiabetic drugs from human plasma prior to their quantitation by HPLC” (RSC Advances, 2018).
